# In PubChem BioAssay AID1159614 (National Center for Advancing Translational Sciences (NCATS), 2016):
# Sequences of proteins named here, by UniProt entry; tags and fusion partners are left off.
# UniProt P54803, whole entry G286D: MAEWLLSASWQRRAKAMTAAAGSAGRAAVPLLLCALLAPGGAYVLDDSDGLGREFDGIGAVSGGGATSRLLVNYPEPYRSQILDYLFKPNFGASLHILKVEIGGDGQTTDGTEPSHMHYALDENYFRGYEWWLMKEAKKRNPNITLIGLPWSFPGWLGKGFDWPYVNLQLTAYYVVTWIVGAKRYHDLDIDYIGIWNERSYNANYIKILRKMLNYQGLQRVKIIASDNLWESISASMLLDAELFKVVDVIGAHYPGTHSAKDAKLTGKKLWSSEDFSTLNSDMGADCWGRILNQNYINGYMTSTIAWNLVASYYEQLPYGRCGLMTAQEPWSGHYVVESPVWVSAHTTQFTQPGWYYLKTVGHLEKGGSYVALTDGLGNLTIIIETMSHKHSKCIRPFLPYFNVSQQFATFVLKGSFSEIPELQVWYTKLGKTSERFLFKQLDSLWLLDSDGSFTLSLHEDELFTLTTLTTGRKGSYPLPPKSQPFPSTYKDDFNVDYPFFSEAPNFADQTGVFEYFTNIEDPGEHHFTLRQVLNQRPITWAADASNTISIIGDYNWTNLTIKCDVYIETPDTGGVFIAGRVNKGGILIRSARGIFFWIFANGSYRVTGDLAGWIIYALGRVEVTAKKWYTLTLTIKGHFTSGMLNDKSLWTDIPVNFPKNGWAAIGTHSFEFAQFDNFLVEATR
# Only a part is listed here, and it is no random draw. Some of these compounds have results that are not shown, active ones among them. Calls of active or inactive are those of the source. The call rests on the fitted dose curve; in most records, active means well fitted activation curve with a large enough effect; inconclusive means small, poorly fitted or top-dose-only effect; inactive means no such curve, though single readings can be large or run the other way.
# Target: Galactocerebrosidase (Homo sapiens) (UniProt P54803)
# Assay: A Novel Cell-Based Assay to Identify Small Molecules for B -Galactocerebrosidase; further: 0% is about no effect; nearly all actives have a fitted effect of over 65% in size
# Details: 145M-Twi-hGALC-G270D cells (Twitcher mouse brain line with human GALC G270D), HMU-beta-Gal fluorescence, 48 h; at 57.5 µM (top of the series)
row,Structure (SMILES),activation
1,COc1ccc(C(=O)NCC2(N(C)C)CCCCC2)cc1Cl,inactive: -5.55%
2,COc1cccc(C(=O)NCC2(N3CCOCC3)CCCCC2)c1,inactive: -4.93%
3,CC(C)COc1ccc(C(=O)NCC2(N(C)C)CCCCC2)cc1,inactive: 21.4%
4,Cc1cccc(C(=O)NCC2(N(C)C)CCCCC2)c1,inactive: -18.7%
5,COc1cc(C(=O)NCC2(N(C)C)CCCCC2)cc(OC)c1OC,inactive: -12.4%
6,CC(C)Oc1ccc(C(=O)NCC2(N(C)C)CCCCC2)cc1,inactive: -9.2%
7,CN(C)C1(CNC(=O)c2cccc(Cl)c2)CCCCC1,inactive: -9.79%
8,CN(C)C1(CNC(=O)c2ccccc2F)CCCCC1,inactive: -15.6%
9,CN(C)C1(CNC(=O)c2ccccc2[N+](=O)[O-])CCCCC1,inactive: -7%
10,CCCCOc1ccccc1C(=O)NCC1(N(C)C)CCCCC1,inactive: 18.1%
11,CCOc1cccc(C(=O)NCC2(N(C)C)CCCCC2)c1,inactive: -7.67%
